Laboratory results from PubChem BioAssay AID1259372 (The Scripps Research Institute Molecular Screening Center, 2018).
This is a selection; strong and weak results do not stand in their true shares. Calls of active or inactive are those of the source.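 Rule for the calls: active = inhibition above a cutoff derived from the DMSO control wells (cut at about 28% in these data); inactive = the rest.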

Sequences of proteins named here, by UniProt entry; tags and fusion partners are left off.
UniProt O75030, whole entry: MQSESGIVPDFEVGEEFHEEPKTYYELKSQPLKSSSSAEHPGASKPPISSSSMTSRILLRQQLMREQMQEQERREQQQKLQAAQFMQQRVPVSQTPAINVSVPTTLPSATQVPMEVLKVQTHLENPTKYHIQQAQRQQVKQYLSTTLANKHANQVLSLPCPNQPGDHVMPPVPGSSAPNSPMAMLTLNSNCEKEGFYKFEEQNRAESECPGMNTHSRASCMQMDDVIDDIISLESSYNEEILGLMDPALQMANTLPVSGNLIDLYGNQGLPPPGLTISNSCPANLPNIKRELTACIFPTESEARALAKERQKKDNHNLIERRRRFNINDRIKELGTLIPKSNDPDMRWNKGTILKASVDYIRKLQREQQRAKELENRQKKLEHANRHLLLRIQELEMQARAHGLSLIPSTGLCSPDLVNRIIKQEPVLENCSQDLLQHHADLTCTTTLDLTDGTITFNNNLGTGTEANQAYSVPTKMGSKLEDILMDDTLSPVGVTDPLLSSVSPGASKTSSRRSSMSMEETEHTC

The molecules below were run against Microphthalmia-associated transcription factor (Homo sapiens) (UniProt O75030) (assay: MITF inhibitors, retest of hits, confirmation, biochemical, AlphaScreen, triplicate (AID 1259372)). Details: AlphaScreen MITF homodimerization, biotin/His-MITF beads; at 2.6 µM; hits give high values.

SMILES	inhibition
CCOP(C)(=S)SCN(CC(=O)O)C(=O)OC (stereo not drawn)	inactive: 1.23%
O=[N+]([O-])c1cc2[nH]c3cc([N+](=O)[O-])c([N+](=O)[O-])cc3c2cc1[N+](=O)[O-]	active: 71.8%
CN(C)CCOC(=O)C(O)(c1ccccc1)C1CCCCC1 (stereo not drawn)	inactive: -3.87%
